# PMC10215740, “Concentrations of Co-Administered Meropenem and Vancomycin in Spinal Tissues Relevant for the Treatment of Pyogenic Spondylodiscitis—An Experimental Microdialysis Study” (Antibiotics, 2023)
# Marks after values point to notes of the source that are not given here.
# Experiment: Plasma and spinal tissue pharmacokinetics by microdialysis after single-dose co-administered i.v. meropenem and vancomycin
# Settings: for AUCtissue/AUCplasma (tissue penetration): ratio tissue-free/plasma-free AUC0-8h, pigs n = 8, single i.v. 1000 mg meropenem + 1000 mg vancomycin
# Excerpt: Eight female pigs (Danish Landrace breed, weight 78–82 kg) were included. In general anaesthesia, microdialysis catheters were placed in the third cervical (C3) vertebral cancellous bone, the C3-C4 intervertebral disc, paravertebral muscle, and adjacent subcutaneous tissue. Plasma samples were obtained as a reference. Abiding by the recommendations of replacement, reduction, and refinement (the 3 Rs) when conducting animal studies, the data sampled in extrathecal spinal tissues in the present study are derived from animals where lower extremity data were reported previously. […] The dose and mode of administration used were in accordance with the clinical practice at our institution. Sampling was conducted for 8 h.
# (Figure 3). The microdialysis catheters used were CMA 70 (membrane length 10 and 20 mm, molecular mass cut of 20 kDa; M Dialysis AB, Stockholm, Sweden). Through an anterolateral approach, the C2, C3, and C4 vertebrae were exposed. Using a 2 mm drill, a 25 mm drill hole was made into the C3 vertebra in which a 20 mm microdialysis catheter was placed. Afterward, with aid from a splitable microdialysis introducer (M Dialysis AB, Stockholm, Sweden), a 10 mm microdialysis catheter was positioned in the C3-C4 intervertebral disc, and a 20 mm microdialysis catheter was positioned in both the exposed paravertebral muscle and adjacent subcutaneous tissue. Correct positioning of the microdialysis catheters in the vertebra and the intervertebral disc was verified by fluoroscopy. The catheters were connected to precision pumps (CMA 107; M Dialysis AB, Stockholm, Sweden) and perfused with 0.9% NaCl solution at a flow rate of 1 μL/min.
# After catheter placement, microdialysis sampling was initiated with a tissue-equilibration period of 20 min prior to the antibiotic intravenous administration. […] Microdialysates were collected at 30 min intervals for the first 4 h, and at 60 min intervals for the last 4 h, resulting in a total of 12 samples during an 8-h dosing interval. At the midpoint of each sampling interval, blood samples were collected from a central venous catheter for reference. The blood samples were stored at 5 °C for a maximum of 6 h before being centrifuged (room temperature, 3000 g, 10 min), and plasma aliquots were made. […] The recovery sample was later used for individual catheter calibration and calculation of absolute tissue concentrations. […]
# The free drug concentration of meropenem in plasma was quantified using ultra-high performance liquid chromatography (UHPLC).
compound,measurement,setting,value
"CN[C@H](CC(C)C)C(=O)N[C@H]1C(=O)N[C@@H](CC(N)=O)C(=O)N[C@H]2C(=O)N[C@H]3C(=O)N[C@H](C(=O)N[C@H](C(=O)O)c4cc(O)cc(O)c4-c4cc3ccc4O)[C@H](O)c3ccc(c(Cl)c3)Oc3cc2cc(c3O[C@@H]2O[C@H](CO)[C@@H](O)[C@H](O)[C@H]2O[C@H]2C[C@](C)(N)[C@H](O)[C@H](C)O2)Oc2ccc(cc2Cl)[C@H]1O [Vancomycin, vancomycin]",Tmax,"intervertebral disc, microdialysis, pigs, one disc catheter malfunctioned, single i.v. 1000 mg meropenem + 1000 mg vancomycin co-administered, mean (95%CI)",275 (225; 325) min
same,AUCtissue/AUCplasma (tissue penetration),paravertebral muscle,0.36 (0.24; 0.47)
same,AUCtissue/AUCplasma (tissue penetration),subcutaneous tissue,0.53 (0.41; 0.64)
same,AUCtissue/AUCplasma (tissue penetration),vertebral cancellous bone,0.24 (0.12; 0.35)^b
